One series has as its system L02 cells. Put plainly: In vitro cytotoxicity, MTT assay. The format is cell-based. To be noted: SPNs 1.6-200 μM, 48 h, n = 3, at low concentrations. As for the experimental part:
(§1) The cytotoxicity of peptides, free agents, and the co-assemblies towards BCPAP and L02 cells was evaluated using the standard MTT assay. Briefly, the cells were seeded into 96-well plates at a density of 8×10^3 cells per well in 100μL of DMEM medium containing 10% FBS and 1% penicillin-streptomycin. After overnight pre-incubation, the cells were treated with the compound, free agents, and co-assemblies at different concentrations for 48 h. Untreated tumor cells were used as controls. Subsequently, the medium was replaced with an MTT solution (100 μL, 0.5 mg/mL) and further cultured for 4 h. Finally, the supernatant was removed and 100 μL of DMSO was added to each well to dissolve the purple crystals. Cell viability was measured using a microplate reader by recording the absorbance of the formazan product at 570 nm.
On the technique in general: Formazan colour is commonly taken as a measure of viable cells.

In the next series the test system is BCPAP cells. Put plainly: In vitro cytotoxicity, MTT assay. In kind it is cell-based, human. Conditions: SPNs 1.6-200 μM, 48 h, n = 3, at low concentrations. As for the experimental part:
as §1

The nature of series [1]: Critical assembly (aggregation) concentration by dynamic light scattering. The format is physicochemical. Conditions: DLS, 532 nm, room temperature (22-25 °C), PBS; drugs co-assembled at 5% w/w; lower CAC = better assembly. As for the experimental part: To study the assembling ability of the peptides, the critical aggregation concentration (CAC) was determined by dynamic light scattering (DLS) using a laser light scattering spectrometer (BI-200SM) equipped with a digital correlator (BI- 9000AT) at 532 nm at room temperature (22‒25 °C). All containers were washed with acetone and dried under vacuum to eliminate dust, and the PBS solvent was filtered through a 0.22 μM sterile membrane prior to the measurement. Briefly, 100 μL of samples were placed in a specific dish, and the light scattering intensity of different concentrations of samples was optimized and recorded by 90 PLUS. The CAC values were analyzed and fitted using Origin 9.6. Lower CAC values represent a better assembly capacity of the sample.

For series [2] the following is noted: mouse plasma (heparinized), 0.5 mg/mL, 37 °C, acetonitrile precipitation, LC-MS, n = 3.
The conditions of series [3]: PBS pH = 7.4; clear solution at a concentration of 0.1 wt%.

Like-named read-outs stand apart in the source and are kept apart here.

Consider Biotin-G^DF^DF^DYGRGD [SPNs], for which the “cellular viability / toxicity of the carrier” value in the series on L02 cells and with BCPAP cells was “relatively low toxicity” in each case. For the same substance, the “critical assembly concentration (CAC)” value in series [1] worked out at 140.5 µM. Moreover, the “SPNs remaining intact after incubation with plasma” value in series [2] (6 h) is given as “approximately 95%”; in series [2] (12 h) it was “approximately 88%”; in series [2] (24 h) it was ~75%. The “solubility in PBS” value in series [3] was “good solubility”.

The record behind these values is PMC10157742, “Supramolecular nanofibers co-loaded with dabrafenib and doxorubicin for targeted and synergistic therapy of differentiated thyroid carcinoma” (Theranostics, 2023).
